From ChEMBL document CHEMBL1135700, “Design, synthesis and activity of ascorbic acid prodrugs of nipecotic, kynurenic and diclophenamic acids, liable to increase neurotropic activity” (2002)

Test system: O=C1O[C@H]([C@@H](O)CO)C(O)=C1O
Test: Uptake of ([14C]- AA) mediated by sodium-dependent ascorbate transporters, SVCT2 measured as Maximum velocity (Vmax)
Assay type: functional

Solute carrier family 23 member 2 (Homo sapiens), Q9UGH3
Vmax (nM hr-1 (10e6*cells)-1): 4.3
